Reference: patent US10087225B2, “Formulation of MK2 inhibitor peptides” (MOERAE MATRIX, INC., priority 2015, dated 2018)

Protein sequences, listed by entry. Tags and fused reporters are not part of them. Lines headed by an entry give the natural chain unless they say otherwise; changes in a name come on top. Residues count along the entry.
UniProt Q06187, whole entry R28H: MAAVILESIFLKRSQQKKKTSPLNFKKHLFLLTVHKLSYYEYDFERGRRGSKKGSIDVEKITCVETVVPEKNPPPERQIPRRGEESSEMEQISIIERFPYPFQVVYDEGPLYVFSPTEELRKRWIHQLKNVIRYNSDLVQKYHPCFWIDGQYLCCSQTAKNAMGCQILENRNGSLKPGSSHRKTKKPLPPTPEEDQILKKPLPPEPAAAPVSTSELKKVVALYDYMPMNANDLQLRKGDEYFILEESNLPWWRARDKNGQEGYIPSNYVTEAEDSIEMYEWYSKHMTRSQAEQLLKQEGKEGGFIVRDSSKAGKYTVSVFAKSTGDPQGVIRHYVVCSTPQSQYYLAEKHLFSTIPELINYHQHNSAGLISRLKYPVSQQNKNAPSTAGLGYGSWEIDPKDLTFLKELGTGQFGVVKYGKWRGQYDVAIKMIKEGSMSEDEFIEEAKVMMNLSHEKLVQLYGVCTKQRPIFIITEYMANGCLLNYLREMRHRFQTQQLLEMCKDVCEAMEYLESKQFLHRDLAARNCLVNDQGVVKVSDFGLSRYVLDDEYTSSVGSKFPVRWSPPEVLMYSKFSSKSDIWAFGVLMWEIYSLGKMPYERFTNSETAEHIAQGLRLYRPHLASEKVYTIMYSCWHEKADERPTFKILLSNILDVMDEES
UniProt O96017, whole entry: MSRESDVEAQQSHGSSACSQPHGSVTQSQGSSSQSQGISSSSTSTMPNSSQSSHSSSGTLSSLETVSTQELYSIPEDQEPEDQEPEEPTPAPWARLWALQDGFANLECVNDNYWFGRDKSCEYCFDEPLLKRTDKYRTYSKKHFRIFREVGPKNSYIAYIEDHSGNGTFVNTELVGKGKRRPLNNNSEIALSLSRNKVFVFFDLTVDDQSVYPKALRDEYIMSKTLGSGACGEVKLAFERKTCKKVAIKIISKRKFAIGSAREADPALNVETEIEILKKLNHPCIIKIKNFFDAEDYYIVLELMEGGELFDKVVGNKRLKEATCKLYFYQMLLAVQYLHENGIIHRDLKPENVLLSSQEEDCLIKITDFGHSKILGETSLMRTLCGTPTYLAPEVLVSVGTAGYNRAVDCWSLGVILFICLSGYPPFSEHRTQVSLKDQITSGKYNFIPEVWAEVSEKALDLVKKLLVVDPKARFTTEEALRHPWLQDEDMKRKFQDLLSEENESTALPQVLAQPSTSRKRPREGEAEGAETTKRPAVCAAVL
UniProt P08631: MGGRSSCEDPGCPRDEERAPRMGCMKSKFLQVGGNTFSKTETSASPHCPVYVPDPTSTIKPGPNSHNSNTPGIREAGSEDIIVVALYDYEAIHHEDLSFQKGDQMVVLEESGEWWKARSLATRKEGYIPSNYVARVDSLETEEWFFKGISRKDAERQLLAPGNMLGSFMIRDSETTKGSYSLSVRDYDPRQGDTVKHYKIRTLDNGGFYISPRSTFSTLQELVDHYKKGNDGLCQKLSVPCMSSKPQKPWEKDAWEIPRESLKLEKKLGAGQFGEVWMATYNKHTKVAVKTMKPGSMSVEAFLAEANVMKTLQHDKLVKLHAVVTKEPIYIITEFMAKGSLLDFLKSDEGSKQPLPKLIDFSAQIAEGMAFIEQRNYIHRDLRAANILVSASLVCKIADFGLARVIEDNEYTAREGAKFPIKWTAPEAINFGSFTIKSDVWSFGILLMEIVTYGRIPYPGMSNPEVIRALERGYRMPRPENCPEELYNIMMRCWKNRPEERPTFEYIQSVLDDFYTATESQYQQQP
UniProt Q9H2X6: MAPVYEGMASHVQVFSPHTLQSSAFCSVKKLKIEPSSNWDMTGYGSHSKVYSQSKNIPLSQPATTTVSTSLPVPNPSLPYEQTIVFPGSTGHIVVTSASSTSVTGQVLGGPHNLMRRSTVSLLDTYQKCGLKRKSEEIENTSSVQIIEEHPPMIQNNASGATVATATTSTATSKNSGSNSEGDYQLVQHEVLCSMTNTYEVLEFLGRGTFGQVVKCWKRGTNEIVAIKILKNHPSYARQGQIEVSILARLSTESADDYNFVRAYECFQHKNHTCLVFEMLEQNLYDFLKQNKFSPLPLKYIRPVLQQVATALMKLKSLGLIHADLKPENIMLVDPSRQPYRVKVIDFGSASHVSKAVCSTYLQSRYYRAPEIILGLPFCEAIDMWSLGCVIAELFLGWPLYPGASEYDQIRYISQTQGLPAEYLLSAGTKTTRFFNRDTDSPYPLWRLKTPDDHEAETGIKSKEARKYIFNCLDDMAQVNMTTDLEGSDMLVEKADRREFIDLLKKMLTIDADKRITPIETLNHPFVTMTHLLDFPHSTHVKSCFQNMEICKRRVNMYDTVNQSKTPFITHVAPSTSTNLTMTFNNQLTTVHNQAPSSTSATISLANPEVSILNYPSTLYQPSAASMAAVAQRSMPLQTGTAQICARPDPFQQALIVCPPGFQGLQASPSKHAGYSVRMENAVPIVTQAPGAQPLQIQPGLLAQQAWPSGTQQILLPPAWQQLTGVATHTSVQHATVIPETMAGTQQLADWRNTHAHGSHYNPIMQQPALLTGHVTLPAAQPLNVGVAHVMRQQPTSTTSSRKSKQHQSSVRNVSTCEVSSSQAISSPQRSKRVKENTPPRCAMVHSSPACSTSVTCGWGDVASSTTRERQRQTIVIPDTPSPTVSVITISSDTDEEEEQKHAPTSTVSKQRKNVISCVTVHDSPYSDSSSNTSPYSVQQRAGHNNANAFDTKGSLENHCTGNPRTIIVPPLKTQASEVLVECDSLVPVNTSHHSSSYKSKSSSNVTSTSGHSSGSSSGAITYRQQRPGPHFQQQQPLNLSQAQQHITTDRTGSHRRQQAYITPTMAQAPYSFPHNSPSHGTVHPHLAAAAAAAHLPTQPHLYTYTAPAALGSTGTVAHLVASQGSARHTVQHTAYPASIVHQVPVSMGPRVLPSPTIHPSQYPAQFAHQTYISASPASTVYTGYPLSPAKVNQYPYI
UniProt O14920: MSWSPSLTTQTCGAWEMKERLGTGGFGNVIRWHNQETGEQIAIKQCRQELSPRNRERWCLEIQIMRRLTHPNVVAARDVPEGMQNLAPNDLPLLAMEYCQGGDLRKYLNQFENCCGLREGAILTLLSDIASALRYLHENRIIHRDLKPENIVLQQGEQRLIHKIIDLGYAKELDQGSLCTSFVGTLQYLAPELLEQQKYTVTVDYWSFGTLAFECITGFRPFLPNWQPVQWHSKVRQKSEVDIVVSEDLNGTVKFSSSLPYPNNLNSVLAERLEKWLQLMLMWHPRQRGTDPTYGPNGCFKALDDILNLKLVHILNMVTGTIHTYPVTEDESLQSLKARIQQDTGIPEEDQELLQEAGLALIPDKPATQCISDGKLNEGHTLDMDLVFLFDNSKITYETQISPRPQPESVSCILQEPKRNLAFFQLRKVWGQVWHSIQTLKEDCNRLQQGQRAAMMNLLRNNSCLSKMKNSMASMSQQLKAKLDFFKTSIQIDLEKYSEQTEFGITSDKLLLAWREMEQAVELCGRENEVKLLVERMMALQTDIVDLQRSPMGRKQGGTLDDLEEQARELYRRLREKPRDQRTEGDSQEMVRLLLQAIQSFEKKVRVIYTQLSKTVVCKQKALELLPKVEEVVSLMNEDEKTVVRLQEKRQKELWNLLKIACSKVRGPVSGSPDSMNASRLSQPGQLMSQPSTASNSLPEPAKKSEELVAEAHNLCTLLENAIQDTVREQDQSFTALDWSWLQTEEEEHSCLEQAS
UniProt P16234, 24-1089 D842V: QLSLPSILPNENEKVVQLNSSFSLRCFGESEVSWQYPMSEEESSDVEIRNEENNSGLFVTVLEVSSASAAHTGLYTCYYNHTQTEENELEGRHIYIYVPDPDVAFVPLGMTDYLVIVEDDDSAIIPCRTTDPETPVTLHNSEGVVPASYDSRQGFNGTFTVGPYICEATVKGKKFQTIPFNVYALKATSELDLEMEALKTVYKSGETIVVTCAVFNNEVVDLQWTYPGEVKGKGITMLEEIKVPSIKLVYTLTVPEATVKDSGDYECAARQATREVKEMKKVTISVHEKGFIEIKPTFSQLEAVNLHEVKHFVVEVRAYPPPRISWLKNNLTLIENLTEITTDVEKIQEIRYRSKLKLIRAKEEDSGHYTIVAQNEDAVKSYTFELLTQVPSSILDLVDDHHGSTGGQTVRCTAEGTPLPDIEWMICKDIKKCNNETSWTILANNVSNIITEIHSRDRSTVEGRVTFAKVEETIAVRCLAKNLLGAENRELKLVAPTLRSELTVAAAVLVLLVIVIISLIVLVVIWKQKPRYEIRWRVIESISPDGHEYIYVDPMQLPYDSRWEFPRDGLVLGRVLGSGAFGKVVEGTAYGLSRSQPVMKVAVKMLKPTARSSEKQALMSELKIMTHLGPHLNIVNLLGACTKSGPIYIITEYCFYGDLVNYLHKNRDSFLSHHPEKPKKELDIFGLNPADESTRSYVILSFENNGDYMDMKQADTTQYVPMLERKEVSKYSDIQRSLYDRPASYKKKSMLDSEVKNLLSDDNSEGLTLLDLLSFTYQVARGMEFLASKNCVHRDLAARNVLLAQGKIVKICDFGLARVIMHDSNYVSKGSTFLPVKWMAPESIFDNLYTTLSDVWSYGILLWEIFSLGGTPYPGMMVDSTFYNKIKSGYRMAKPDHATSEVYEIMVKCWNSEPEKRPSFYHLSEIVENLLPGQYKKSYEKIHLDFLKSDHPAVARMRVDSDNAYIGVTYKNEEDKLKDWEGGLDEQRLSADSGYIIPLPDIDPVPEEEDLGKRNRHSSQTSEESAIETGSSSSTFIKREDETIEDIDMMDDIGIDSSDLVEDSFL
UniProt Q9H4B4: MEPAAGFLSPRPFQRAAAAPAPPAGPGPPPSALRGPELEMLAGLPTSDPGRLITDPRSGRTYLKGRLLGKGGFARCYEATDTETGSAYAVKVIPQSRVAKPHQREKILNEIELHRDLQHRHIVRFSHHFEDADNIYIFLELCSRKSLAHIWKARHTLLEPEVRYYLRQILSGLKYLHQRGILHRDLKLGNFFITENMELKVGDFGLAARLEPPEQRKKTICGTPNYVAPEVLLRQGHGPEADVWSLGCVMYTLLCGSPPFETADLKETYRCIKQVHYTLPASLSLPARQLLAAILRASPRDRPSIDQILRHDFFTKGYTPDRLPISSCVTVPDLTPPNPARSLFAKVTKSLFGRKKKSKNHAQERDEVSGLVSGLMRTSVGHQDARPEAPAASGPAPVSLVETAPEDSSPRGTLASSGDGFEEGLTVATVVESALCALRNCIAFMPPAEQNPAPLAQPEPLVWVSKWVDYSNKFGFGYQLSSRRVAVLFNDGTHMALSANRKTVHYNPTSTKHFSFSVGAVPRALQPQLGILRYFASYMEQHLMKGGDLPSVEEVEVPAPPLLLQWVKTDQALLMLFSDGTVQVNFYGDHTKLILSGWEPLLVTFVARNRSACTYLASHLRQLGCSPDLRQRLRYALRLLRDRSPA

Key:
Assay in all cases: Kinase Profiling Assay
Assay type in all cases: biochemical
Conditions in all cases: 100 μM
[1] = biological target: Ab1(h) (Homo sapiens, UniProt P00519)
[2] = biological target: Ab1(M351T)(h) (Homo sapiens, UniProt P00519, M351T)
[3] = biological target: T1, Aurora-A(h) (Homo sapiens, UniProt O14965)
T1 sequence (O14965 1-403): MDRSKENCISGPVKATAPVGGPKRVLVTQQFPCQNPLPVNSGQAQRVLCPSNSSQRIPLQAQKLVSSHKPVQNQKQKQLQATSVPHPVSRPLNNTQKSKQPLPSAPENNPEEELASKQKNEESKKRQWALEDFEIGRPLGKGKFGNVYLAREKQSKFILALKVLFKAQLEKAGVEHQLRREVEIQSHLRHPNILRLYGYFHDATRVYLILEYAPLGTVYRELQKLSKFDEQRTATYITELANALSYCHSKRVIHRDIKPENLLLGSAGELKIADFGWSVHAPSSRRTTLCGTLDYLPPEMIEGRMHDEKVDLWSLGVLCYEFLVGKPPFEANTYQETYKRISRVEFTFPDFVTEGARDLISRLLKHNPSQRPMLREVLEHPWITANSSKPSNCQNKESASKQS

[4] = biological target: BTK(R28H)(h) (Homo sapiens, UniProt Q06187, R28H)
[5] = biological target: T2, CHK1(h) (Homo sapiens, UniProt O14757)
T2 sequence (O14757 1-476): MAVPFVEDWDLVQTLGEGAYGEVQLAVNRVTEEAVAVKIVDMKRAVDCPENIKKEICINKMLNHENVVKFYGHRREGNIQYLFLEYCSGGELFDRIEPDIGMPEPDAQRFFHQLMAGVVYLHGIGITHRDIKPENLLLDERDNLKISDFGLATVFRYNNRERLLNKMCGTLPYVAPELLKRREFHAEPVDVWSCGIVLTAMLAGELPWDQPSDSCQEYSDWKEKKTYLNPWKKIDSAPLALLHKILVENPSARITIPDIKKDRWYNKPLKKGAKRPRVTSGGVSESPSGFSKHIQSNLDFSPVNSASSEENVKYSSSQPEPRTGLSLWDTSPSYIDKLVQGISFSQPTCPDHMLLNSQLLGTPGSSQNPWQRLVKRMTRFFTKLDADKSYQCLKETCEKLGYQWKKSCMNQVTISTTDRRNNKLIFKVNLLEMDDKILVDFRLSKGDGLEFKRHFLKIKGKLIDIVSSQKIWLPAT

[6] = biological target: CHK2(h) (Homo sapiens, UniProt O96017)
[7] = biological target: EGFR(T790M)(h) (Homo sapiens, UniProt P00533, T790M)
[8] = biological target: Hck(h) (Homo sapiens, UniProt P08631)
[9] = biological target: HIPK2(h) (Homo sapiens, UniProt Q9H2X6)
[10] = biological target: IKKβ(h) (Homo sapiens, UniProt O14920)
[11] = biological target: MEK1(h) (Homo sapiens, UniProt Q02750)
[12] = biological target: PDGFRα(D842V)(h) (Homo sapiens, UniProt P16234, D842V)
[13] = biological target: Plk3(h) (Homo sapiens, UniProt Q9H4B4)
[14] = biological target: T3, PRAK(h) (Homo sapiens, UniProt Q8IW41)
T3 sequence (Q8IW41 1-473): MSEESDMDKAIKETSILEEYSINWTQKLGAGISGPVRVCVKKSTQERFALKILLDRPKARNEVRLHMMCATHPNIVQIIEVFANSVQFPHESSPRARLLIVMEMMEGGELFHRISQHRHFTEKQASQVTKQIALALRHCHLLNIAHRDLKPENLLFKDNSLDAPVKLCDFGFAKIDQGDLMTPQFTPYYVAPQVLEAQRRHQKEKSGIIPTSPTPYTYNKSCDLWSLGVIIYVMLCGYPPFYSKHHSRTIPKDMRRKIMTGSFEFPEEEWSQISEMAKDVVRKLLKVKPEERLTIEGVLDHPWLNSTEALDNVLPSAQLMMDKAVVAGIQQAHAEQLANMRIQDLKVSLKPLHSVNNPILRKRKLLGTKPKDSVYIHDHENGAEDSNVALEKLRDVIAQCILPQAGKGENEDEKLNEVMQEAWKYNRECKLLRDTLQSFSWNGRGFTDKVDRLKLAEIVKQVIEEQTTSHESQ

[15] = biological target: T4, SGK(h) (Homo sapiens, UniProt O00141)
T4 sequence (O00141 1-431): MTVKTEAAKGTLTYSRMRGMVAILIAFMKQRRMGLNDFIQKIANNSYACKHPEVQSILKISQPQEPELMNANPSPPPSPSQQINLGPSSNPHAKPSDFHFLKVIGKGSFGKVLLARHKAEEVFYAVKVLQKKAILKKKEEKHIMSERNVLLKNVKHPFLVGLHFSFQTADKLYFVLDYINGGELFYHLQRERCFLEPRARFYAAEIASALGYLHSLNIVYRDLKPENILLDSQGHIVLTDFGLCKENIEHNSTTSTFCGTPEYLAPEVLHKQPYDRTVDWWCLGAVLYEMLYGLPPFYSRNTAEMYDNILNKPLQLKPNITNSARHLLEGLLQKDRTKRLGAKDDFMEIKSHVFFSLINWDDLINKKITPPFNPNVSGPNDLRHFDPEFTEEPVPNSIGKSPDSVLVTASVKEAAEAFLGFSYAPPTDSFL

## YARAAARQARAKALNRQLGVA (Mammalian) [MMI-0200]
[1]
  % activity: 107%
[2]
  % activity: 119%
[3]
  % activity: 107%
[4]
  % activity: 104%
[5]
  % activity: 115%
[6]
  % activity: 105%
[7]
  % activity: 113%
[8]
  % activity: 107%
[9]
  % activity: 102%
[10]
  % activity: 109%
[11]
  % activity: 116%
[12]
  % activity: 107%
[13]
  % activity: 107%
[14]
  % activity: 115%
[15]
  % activity: 115%
